From PubChem
TCR act: activators of T cell receptors | primary human leukocytes, anti-CD3, IL-2 HTRF, 48 h | 330,000 tested, under 10 active | Potency, µM (series often up to 9.22 µM), without a hit: at the top dose activation of IL-2 secretion, usual class: activators; note: % of control where 0% means no effect
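Primary human leukocytes incubated 48 hr with anti-CD3 beads plus compound, without co-stimulation. Secreted IL-2 measured by HTRF (europium cryptate/d2 anti-IL-2 pair, 320 nm excitation, 665 nm emission).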
A549 tox: A549 cytotoxicity, counter-screen for Nrf2 inhibitors; A549 ARE-Fluc cells, CellTiter-Fluor viability, 18-24 h; Potency, µM (titrated, usually from 46 µM), without a hit: top-dose activity change, negative = cytotoxicity, hits mostly inhibitors; 0.16% of 390,000 active; AID 504648; note: potency is the fitted concentration of half-maximal effect; % is set by controls: 0 for no effect and ±100 for the full control effect
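A549 ARE_Fluc cells in 5% FBS OPTI-MEM were exposed to compounds in concentration-response for 18-24 h at 37 deg C. Viability was read by CellTiter-Fluor fluorescence (Ex 405/Em 525) after 30 min, before the luciferase read.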
Nrf2 ARE act: Nrf2 pathway activation; Potency, µM (titrated, usually from 46.1 µM), without a hit: at the top dose activation, hits mostly activators; AREc32 ARE-luciferase reporter (MCF7-derived line), luminescence, 24 h; 0.31% of 410,000 active; note: potency is the fitted concentration of half-maximal effect; % of control where 0% means no effect; nearly all actives have a fitted effect of over 65% in size
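ARE-driven firefly luciferase activity in AREc32 cells measured after a 24 hr compound exposure at 37 deg C, using Steady-Glo reagent and a 30 min room-temperature hold.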
ClpP mod: qHTS Assay for Activators of ClpP. Potency, µM (series often up to 57.5 µM), for inactives: at the highest dose activity change, negative = active. AID 651965, 2013. 1.9% of 340,000 active. purified B. subtilis ClpP, FRET peptide cleavage, 20 min. ATP-dependent Clp protease proteolytic subunit (Bacillus subtilis (strain 168)), P80244; active = well fitted falling curve with a large enough effect; inconclusive = small, poorly fitted or top-dose-only effect; inactive = no such curve, though single readings can be large or run the other way; note: potency is the fitted concentration of half-maximal effect; the source files actives as falling curves though it sought activators and does not explain the sign; nearly all actives have a fitted effect of over 65% in size
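ClpP 10 microg/mL final, pH 8 Tris/KCl buffer with BSA, glycerol, Tween-20; compound pinned in; FRET-FV substrate; RT 20 min; Ex320/Em430; ΔFRET vs ADEP 5.8 microM, DMSO, no enzyme.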
Nrf2 block: inhibitors of Nrf2 signaling; A549 ARE-Fluc reporter, luciferase luminescence, 18-24 h; Potency, µM (doses to about 46 µM), for the others: top-dose activity change, negative = inhibition, actives largely listed as inhibitors; AID 504444; 2.1% of 360,000 active; note: potency is the fitted concentration of half-maximal effect; % is set by controls: 0 for no effect and ±100 for the full control effect; nearly all actives have a fitted effect of over 60% in size
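Concentration-response testing used A549 ARE_Fluc cells at 5000 cells/well. Following an 18-24 h compound incubation, viability was read by fluorescence (Ex 405/Em 525) and luciferase output by luminescence.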
miR-21 reporter: raises the signal of a miR-21 reporter | HeLa miR-21 FLuc reporter, luciferase, 48 h | Potency, µM (doses to about 38.3 µM), for the others: at the highest dose reporter change, positive = more light | 340,000 tested, under 10 active | AID 2288; active = well fitted rising curve with a large enough effect; inconclusive = small, poorly fitted or top-dose-only effect; inactive = no such curve, though single readings can be large or run the other way;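 also: % of control where 0% means no effect; miR-21 action dims this reporter so a rising signal means less miR-21 action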
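Compounds were titrated across several concentrations (up to approximately 40 uM) and incubated 48 hours with HeLa miR-21-FLuc reporter cells (miR-21 target sequence downstream of FLuc, endogenous miR-21). Readout was firefly luciferase luminescence after lytic detection reagent.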
The depositor's hits bear a star; ? = inconclusive; . = no result; [ ] = dose if it differs, or a comment. An excerpt weighted towards active compounds, which were near 3.7% of everything screened. Unless noted, calls come from the whole dose curve; as a rule, active = well fitted curve in the direction sought with a large enough effect; inconclusive = small, poorly fitted or top-dose-only effect, or another doubt; inactive = no such curve, though single readings can be large; an effect the other way counts as inactive or inconclusive.

Amino acid sequences for entries named in this document (tags omitted).
ATP-dependent Clp protease proteolytic subunit (Bacillus subtilis (strain 168)), P80244, UniProt P80244, whole entry, looked up: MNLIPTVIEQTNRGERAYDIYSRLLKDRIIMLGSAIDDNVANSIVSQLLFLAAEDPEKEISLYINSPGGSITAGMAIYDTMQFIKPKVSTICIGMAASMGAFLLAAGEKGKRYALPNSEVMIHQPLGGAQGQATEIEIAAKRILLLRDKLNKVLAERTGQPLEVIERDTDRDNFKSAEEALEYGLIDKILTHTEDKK

Every second line gives: TCR act, miR-21 reporter, Nrf2 ARE act, A549 tox, ClpP mod, Nrf2 block
1	Cc1ccc(S(=O)(=O)N(C)C)cc1NC(=O)CN1CCN(Cc2ccccc2)CC1
    2.8%, -1.5%, 0.0%, 2.2%, -2.1%, -6.5%
2	Cc1ccc(S(=O)(=O)N(C)C)cc1NC(=O)c1cc(C(C)(C)C)nn1Cc1ccccc1
    3.0%, 11.2%, 2.3%, 4.8%, -5.3%, 10.3µM*
3	COc1cc2c(NC3CCN(C)CC3)nc(N3CCCN(C)CC3)nc2cc1OCCCN1CCOCC1
    ., ., ., ., 4.1%, .
4	CC(C)Oc1ccc(CN=C(N)N=C(N)N)cc1Cl
    12.5%[46.1 µM], 13.4%, -0.2%, -16.7%, ., 14.6µM*
5	COc1ccc(CN=C(N)N=C(N)N)cc1Cl
    -7.9%, 5.9%, -0.1%, -19.3%, ., 16.4µM*
6	O=C1CN(CCN2CC(=O)NC(=O)C2)CC(=O)N1
    ., ., ., ., 0.7%, .
7	c1ccc(-c2cn(-c3ccccc3)c3[n+]2CCCS3)cc1
    -5.0%, 20.9%, 0.2%, -9.6%, 0.7%, 9.2µM*
8	Cc1cccc(C)c1OCc1cc(C(=O)NCC2CCCCC2)no1
    -4.5%, -2.0%, 0.3%, 10.6%, 0.6%, 10.4%
9	Cc1cccc(C)c1OCc1cc(C(=O)N(Cc2c(C)nn(C)c2C)C2CC2)no1
    1.5%, 13.7%, -0.9%, -8.0%, 0.2%, 23.1µM*
10	CCN(CC)CCNC(=O)c1ccc2c(c1NCCO)C(=O)c1ccccc1C2=O
    9.5%, ?, -3.5%, ?, -1.8%, 3.26µM*
11	CCN(CC)CCC(=O)Nc1cccc2c1C(=O)c1ccccc1C2=O
    -31.7%, ?, -1.6%, 20.6µM*, ., 16.4µM*
12	O=C(/C=C/c1c(F)cccc1Cl)NCc1ccco1
    5.4%[46.1 µM], -47.9%, ?, 21.1%, 10µM*, 24.1%
13	CN(C)c1ccc2nc3c(=O)[nH]c(=O)nc-3n(CC(O)C(O)C(O)CO)c2c1 (stereo unspecified)
    10.0%, 11.7%, -0.7%, 10.3µM*, 1.3%, ?
14	O=S(=O)(c1ccc(=S)[nH]c1)N1CCN(Cc2ccccc2)CC1
    -2.6%, ., -0.3%, 6.9%, 0.4%, 0.1%
15	COc1ccc(-c2cc(C)nc3c(-c4ccc(OC)c(OC)c4)c(C)nn23)cc1
    ., 22.2%, -0.9%, -20.2%, -1.1%, ?
16	CNC(=S)N(Cc1ccco1)Cc1cc2cc3c(cc2[nH]c1=O)OCCO3
    2.7%[46.1 µM], -21.5%, 4.2%, 3.0%, ?, -2.7%
17	CCN(CC)CCCNC(=S)N(Cc1ccco1)Cc1cc2cc3c(cc2[nH]c1=O)OCCO3
    -0.9%[46.1 µM], -7.0%, ., ., ., .
18	CC(C)CNC(=S)N(Cc1ccco1)Cc1cc2cc3c(cc2[nH]c1=O)OCCO3
    2.1%[46.1 µM], -0.6%, 0.0%, -2.0%, 31.6µM*, -25.4%
19	CCNC(=S)N(Cc1ccco1)Cc1cc2cc3c(cc2[nH]c1=O)OCCO3
    2.8%[46.1 µM], -8.2%, 0.7%, 2.6%, 28.2µM*, 1.1%
20	Cc1ccc(CN(Cc2cc3cc4c(cc3[nH]c2=O)OCCO4)Cc2nnnn2Cc2ccco2)cc1
    -0.2%, 0.4%, 4.7%, ?, 31.6µM*, 25.9µM*

ClpP mod: what is marked active above
No.	Compound	TCR act	miR-21 reporter	Nrf2 ARE act	ClpP mod
12	O=C(/C=C/c1c(F)cccc1Cl)NCc1ccco1	5.4%[46.1 µM]	-47.9%	?	10µM*
18	CC(C)CNC(=S)N(Cc1ccco1)Cc1cc2cc3c(cc2[nH]c1=O)OCCO3	2.1%[46.1 µM]	-0.6%	0.0%	31.6µM*
19	CCNC(=S)N(Cc1ccco1)Cc1cc2cc3c(cc2[nH]c1=O)OCCO3	2.8%[46.1 µM]	-8.2%	0.7%	28.2µM*
20	Cc1ccc(CN(Cc2cc3cc4c(cc3[nH]c2=O)OCCO4)Cc2nnnn2Cc2ccco2)cc1	-0.2%	0.4%	4.7%	31.6µM*

(further entries)
Every second line gives: TCR act, miR-21 reporter, Nrf2 ARE act, A549 tox, ClpP mod, Nrf2 block
21	CCC(=O)N1c2ccccc2CC1C(=O)NCCN1CCN(c2cccc(C)c2C)CC1 (stereo unspecified)
    ., 16.8%, -0.3%, -21.9%, -0.2%, .
22	NC(=O)c1ccc(NC(=O)COC(=O)C2(c3cccc(F)c3)CCCC2)cc1
    -1.7%, 13.7%, -0.3%, 1.2%, 1.1%, -31.8%
23	CN(C)C(=O)c1ccc(NC(=O)COC(=O)C2(c3ccccc3)CCCC2)cc1
    ., ., 0.3%, -0.7%, -1.1%, 16.4µM*
24	COc1ccc(-c2nnc(-c3ccc(N(C)C)cc3)o2)cc1
    ., -21.3%, 0.5%, 16.6%, ?, .
25	COc1ccc(-c2nnc(-c3ccc(N)cc3)o2)cc1
    -1.6%, -48.3%, 0.7%, -8.1%, 28.2µM*, 29.3%
26	COc1ccc(-c2ccc(-c3nnc(-c4cc(OC)ccc4OC)o3)cc2)cc1
    -0.3%, -2.4%, -0.5%, ., 15.8µM*, ?
27	Cc1ccc(-c2nnn(CC(=O)Nc3ccc4nn(-c5ccccc5)nc4c3)n2)o1
    1.9%, -11.6%, -0.3%, 4.4%, 14.1µM*, 0.0%
28	COc1ccccc1C(c1nnnn1Cc1ccco1)N1CCN(c2cccc(C)c2C)CC1 (stereo unspecified)
    -1.5%[46.1 µM], 11.4%, -0.8%, -14.8%, -1.2%, 11.6µM*
29	CC(C)OCCCNC(=O)c1ccccc1NC(=O)C1=CSCCO1
    3.6%, 0.2%, -0.4%, 0.9%, 0.5%, 0.2%
30	Cc1c(Cl)cccc1NC(=O)N1CCCN(c2nc(-c3ccccc3)ns2)CC1
    -0.8%, 19.0%, 1.9%, -2.0%, ., 20.6µM*
31	O=C(Nc1ccccc1)N1CCN(c2nc(-c3ccccc3)ns2)CC1
    4.5%, 8.7%, 2.5%, -14.2%, 0.1%, 23.1µM*
32	CCN(CC(=O)Nc1c(F)cccc1F)C(=O)c1cccc(-n2cnnn2)c1
    14.9%, ., 2.6%, -0.3%, -2.4%, 8.4%
33	O=C(C[N+]12CN3CN(CN(C3)C1)C2)c1ccc(O)c(O)c1
    ., ., ., ., -2.2%, .
34	O=c1[nH]c(/C(Cl)=C/c2cc(Cl)ccc2O)nc2cc(Cl)ccc12
    1.0%, -5.5%, 8.91µM*, -9.0%, -1.6%, -12.7%
35	O=c1[nH]c(/C(Cl)=C/c2c(F)cccc2Cl)nc2cc(Cl)ccc12
    -5.7%[46.1 µM], 5.7%, 17.1%, -2.5%, -0.1%, ?
36	COc1ccccc1/C=C/c1nc2ccccc2[nH]1
    ., ., ., ., 4.2%, .
37	CN(C)S(=O)(=O)c1ccc2c(c1)nc(CCC(=O)NCc1ccc(Cl)cc1)n2C
    5.9%, -1.3%, 0.7%, 6.2%, ., 23.1µM*
38	CN(C)S(=O)(=O)c1ccc2c(c1)nc(CCC(=O)NCC1CCCCC1)n2C
    -0.8%, -3.0%, 0.3%, 1.0%, -2.1%, -2.8%
39	Cc1cccn2c(=O)c(C(=O)NC3CCCCC3C)c(O)nc12 (stereo unspecified)
    5.3%, ., -0.2%, -16.1%, 28.2µM*, ?
40	Cc1cccn2c(=O)c(C(=O)NC3CCCCC3)c(O)nc12
    1.4%, -0.1%, -0.5%, -2.9%, -12.7%, 11.2%
41	O=C(NCC1COc2ccccc2O1)c1cc(S(=O)(=O)N2CCOCC2)c(Cl)cc1Cl (stereo unspecified)
    -4.4%, ., 2.5%, 0.5%, ., 23.1µM*
42	CCCCN(C)C(=O)c1oc2ccc(S(=O)(=O)N3CCCCCC3)cc2c1C
    ., -1.0%, 2.7%, -13.4%, -1.5%, 16.4µM*
43	Cc1c(C(=O)NCC2COc3ccccc3O2)oc2ccc(S(=O)(=O)N3CC(C)CC(C)C3)cc12 (stereo unspecified)
    -9.6%, 0.4%, 0.1%, 6.9%, -25.6%, -20.5%
44	Cc1c(C(=O)NCC2COc3ccccc3O2)oc2ccc(S(=O)(=O)N3CCOCC3)cc12 (stereo unspecified)
    8.2%, 0.5%, -0.7%, -16.1%, -0.9%, 18.4µM*
